T1: MYO1G (HA-2 REF; MYO1G(V) variant) peptide on HLA-A*02:01 (human)
T1 peptide: YIGEVLVSV

B1: HA2-MJ1-DP57 (TCR, V domains shown)
Valpha: QKEVEQNSGPLSVPEGAIASLNCTYSDRGSQSFFWYRQYSGKSPELIMFIYSNGDKEDGRFTAQLNKASQYVSLLIRDSQPSDSATYLCAVNKGGGTSYGKLTFGQGTILTVHP
Vbeta: EAQVTQNPRYLITVTGKKLTVTCSQNMNHEYMSWYRQDPGLGLRQIYYSMNVEVTDKGDVPEGYKVSRKEKRNFPLILESPSPNQTSLYFCASSWTLNTEAFFGQGTRLTVV
B2: HA2-MJ1-DP1 (TCR, V domains shown)
Valpha: SQELEQSPQSLIVQEGKNLTINCTSSKTLYGLYWYKQKYGEGLIFLMMLQKGGEEKSHEKITAKLDEKKQQSSLHITASQPRHAGIYLCGARKKNYGGSQGNLIFGKGTKLSVKP
Vbeta: GAGVSQSPRYKVAKRGQDVALRCDPISGHVSLFWYQQALGQGPEFLTYFQNEAQLDKSGLPSDRFFAERPEGSVSTLKIQRTQQEDSAVYLCASSSGPTSPQHFGDGTRLSIL
B3: HA2-MJ14-DP317 (TCR, V domains shown)
Valpha: AQTVTQSQPEMSVQEAETVTLSCTYDTSESDYYLFWYKQPPSRQMILVIRQEAYKQQNATENRFSVNFQKAAKSFSLKISDSQLGDAAMYFCAYRSERYSTLTFGKGTMLLVSP
Vbeta: SQTIHQWPATLVQPVGSPLSLECTVEGTSNPNLYWYRQAAGRGLQLLFYSVGIGQISSEVPQNLSASRPQDRQFILSSKKLLLSDSGFYLCAWSVPYLAGGKRPDTQYFGPGTRLTVL
B4: HA2-MJ7-DP19 (TCR, V domains shown)
Valpha: ELKVEQNPLFLSMQEGKNYTIYCNYSTTSDRLYWYRQDPGKSLESLFVLLSNGAVKQEGRLMASLDTKARLSTLHITAAVHDLSATYFCAVDTNMRFGAGTRLTVKP
Vbeta: NAGVTQTPKFQVLKTGQSMTLQCAQDMNHNSMYWYRQDPGMGLRLIYYSASEGTTDKGEVPNGYNVSRLNKREFSLRLESAAPSQTSVYFCASSEIQGEKLFFGSGTQLSVL
B5: HA2-MJ1-DP37 (TCR, V domains shown)
Valpha: EDKVVQSPLSLVVHEGDTVTLNCSYEVTNFRSLLWYKQEKKAPTFLFMLTSSGIEKKSGRLSSILDKKELFSILNITATQTGDSAIYLCAVEAGYGGSQGNLIFGKGTKLSVKP
Vbeta: NAGVMQNPRHLVRRRGQEARLRCSPMKGHSHVYWYRQLPEEGLKFMVYLQKENIIDESGMPKERFSAEFPKEGPSILRIQQVVRGDSAAYFCASSPRTGGIGNTIYFGEGSWLTVV
B6: HA2-MJ2-DP8 (TCR, V domains shown)
Valpha: KNEVEQSPQNLTAQEGEFITINCSYSVGISALHWLQQHPGGGIVSLFMLSSGKKKHGRLIATINIQEKHSSLHITASHPRDSAVYICAVDGTGGTKKTSYDKVIFGPGTSLSVIP
Vbeta: KAGVTQTPRYLIKTRGQQVTLSCSPISGHRSVSWYQQTPGQGLQFLFEYFSETQRNKGNFPGRFSGRQFSNSRSEMNVSTLELGDSALYLCASSLRGLAAYNEQFFGPGTRLTVL
B7: HA2-MJ3-DP12 (TCR, V domains shown)
Valpha: TQLLEQSPQFLSIQEGENLTVYCNSSSVFSSLQWYRQEPGEGPVLLVTVVTGGEVKKLKRLTFQFGDARKDSSLHITAAQTGDTGLYLCAGAGMNYGGSQGNLIFGKGTKLSVKP
Vbeta: NAGVMQNPRHLVRRRGQEARLRCSPMKGHSHVYWYRQLPEEGLKFMVYLQKENIIDESGMPKERFSAEFPKEGPSILRIQQVVRGDSAAYFCASSLTSGRLNEQFFGPGTRLTVL
B8: HA2-MJ9-DP5 (TCR, V domains shown)
Valpha: KQEVTQIPAALSVPEGENLVLNCSFTDSAIYNLQWFRQDPGKGLTSLLLIQSSQREQTSGRLNASLDKSSGRSTLYIAASQPGDSATYLCAVRPKNYGGSQGNLIFGKGTKLSVKP
Vbeta: B7 Vbeta with R100S, L101S
B9: HA2-MJ1-DP2 (TCR, V domains shown)
Valpha: AQSVAQPEDQVNVAEGNPLTVKCTYSVSGNPYLFWYVQYPNRGLQFLLKYITGDNLVKGSYGFEAEFNKSQTSFHLKKPSALVSDSALYFCAVRDPGNYGQNFVFGPGTRLSVLP
Vbeta: DTGVSQDPRHKITKRGQNVTFRCDPISEHNRLYWYRQTLGQGPEFLTYFQNEAQLEKSRLLSDRFSAERPKGSFSTLEIQRTEQGDSAMYLCASSLLGHTQETQYFGPGTRLLVL
B10: HA2-MJ2-DP1 (TCR, V domains shown)
Valpha: ELKVEQNPLFLSMQEGKNYTIYCNYSTTSDRLYWYRQDPGKSLESLFVLLSNGAVKQEGRLMASLDTKARLSTLHITAAVHDLSATYFCAVRMGYGGSQGNLIFGKGTKLSVKP
Vbeta: GAGVSQSPRYKVAKRGQDVALRCDPISGHVSLFWYQQALGQGPEFLTYFQNEAQLDKSGLPSDRFFAERPEGSVSTLKIQRTQQEDSAVYLCASSFASQPQHFGDGTRLSIL
B11: HA2-MJ2-DP22 (TCR, V domains shown)
Valpha: GQQLNQSPQSMFIQEGEDVSMNCTSSSIFNTWLWYKQEPGEGPVLLIALYKAGELTSNGRLTAQFGITRKDSFLNISASIPSDVGIYFCAGPFGYGGSQGNLIFGKGTKLSVKP
Vbeta: GAGVSQSPRYKVAKRGQDVALRCDPISGHVSLFWYQQALGQGPEFLTYFQNEAQLDKSGLPSDRFFAERPEGSVSTLKIQRTQQEDSAVYLCASSLIGRGWDGYTFGSGTRLTVV

Residue numbers refer to the chain shown, from its start.

The target of this test is T1, MYO1G (HA-2 REF; MYO1G(V) variant) …. In words: multimer staining.
Consider B1, for which the binding result was “recognises”.
B2: the binding result is “recognises”.
The result for B3 reads “recognises”; that for B4, “recognises”.
The result for B5 reads “recognises”.
The result for B6 reads “recognises”; that for B7, “recognises”.
For the molecule B8, the binding result is listed as “recognises”.
In the case of B9 it was “recognises”; in that of B10, “recognises”.
In the case of B11 it was “recognises”.
